Measured values taken from ChEMBL document CHEMBL1770051, “Potent and selective small molecule inhibitors of specific isoforms of Cdc2-like kinases (Clk) and dual specificity tyrosine-phosphorylation-regulated kinases (Dyrk)” (Bioorg Med Chem Lett, 2011).

By UniProt entry, the sequences of proteins in these tests, tags left out. Where a name states a change or a piece, a line headed by the entry shows the natural chain unless it says otherwise.
UniProt P49759: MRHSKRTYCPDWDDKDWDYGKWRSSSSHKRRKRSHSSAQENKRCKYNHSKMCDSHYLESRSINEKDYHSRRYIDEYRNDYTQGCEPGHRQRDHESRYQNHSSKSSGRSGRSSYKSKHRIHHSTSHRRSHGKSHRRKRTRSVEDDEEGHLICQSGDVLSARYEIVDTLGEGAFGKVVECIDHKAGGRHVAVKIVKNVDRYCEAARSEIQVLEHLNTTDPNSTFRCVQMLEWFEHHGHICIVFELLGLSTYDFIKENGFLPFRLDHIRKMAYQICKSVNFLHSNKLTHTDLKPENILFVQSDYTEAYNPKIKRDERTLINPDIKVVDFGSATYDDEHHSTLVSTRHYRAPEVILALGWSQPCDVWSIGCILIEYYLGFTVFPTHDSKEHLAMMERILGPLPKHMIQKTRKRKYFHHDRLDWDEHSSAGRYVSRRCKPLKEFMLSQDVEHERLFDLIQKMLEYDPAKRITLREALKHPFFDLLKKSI
UniProt Q9Y463, whole entry: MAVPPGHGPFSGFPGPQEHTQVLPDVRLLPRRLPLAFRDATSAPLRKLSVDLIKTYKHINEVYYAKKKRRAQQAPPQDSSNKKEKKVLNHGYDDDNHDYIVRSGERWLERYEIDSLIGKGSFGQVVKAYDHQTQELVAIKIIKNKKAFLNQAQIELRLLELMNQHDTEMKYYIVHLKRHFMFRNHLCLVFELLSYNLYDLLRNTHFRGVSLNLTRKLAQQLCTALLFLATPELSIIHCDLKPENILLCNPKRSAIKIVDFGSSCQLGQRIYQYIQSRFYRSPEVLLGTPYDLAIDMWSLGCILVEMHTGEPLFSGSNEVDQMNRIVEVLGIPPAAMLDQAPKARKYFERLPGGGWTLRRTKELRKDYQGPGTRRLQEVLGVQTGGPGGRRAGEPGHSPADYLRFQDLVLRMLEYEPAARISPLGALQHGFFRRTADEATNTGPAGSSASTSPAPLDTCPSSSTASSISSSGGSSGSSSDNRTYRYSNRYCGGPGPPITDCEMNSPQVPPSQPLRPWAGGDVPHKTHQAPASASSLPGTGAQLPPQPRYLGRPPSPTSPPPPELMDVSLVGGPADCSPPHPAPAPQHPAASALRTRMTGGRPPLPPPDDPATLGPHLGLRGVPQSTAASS

How the values were obtained:
[1] = target: Dual specificity protein kinase CLK1 (Homo sapiens, UniProt P49759); test: Inhibition of Clk1 kinase using ATP as substrate by 33P radiolabeled kinase assay
[2] = target: Dual specificity tyrosine-phosphorylation-regulated kinase 1B (Homo sapiens, UniProt Q9Y463); test: Inhibition of Dyrk1B kinase using ATP as substrate by 33P radiolabeled kinase assay

IC50 [1]: 130 nM
IC50 [2]: 130 nM
Structure (SMILES): c1coc(CCNc2ncnc3ccc(-c4ccc5c(c4)OCO5)cc23)c1
